Results reported in ChEMBL document CHEMBL3351980, “Michael acceptor approach to the design of new salvinorin A-based high affinity ligands for the kappa-opioid receptor” (Eur J Med Chem, 2014).

Chains of the proteins cited; added tags and fusions are not shown. Lines headed by an entry give the natural chain unless they say otherwise; changes in a name come on top.
UniProt P41145: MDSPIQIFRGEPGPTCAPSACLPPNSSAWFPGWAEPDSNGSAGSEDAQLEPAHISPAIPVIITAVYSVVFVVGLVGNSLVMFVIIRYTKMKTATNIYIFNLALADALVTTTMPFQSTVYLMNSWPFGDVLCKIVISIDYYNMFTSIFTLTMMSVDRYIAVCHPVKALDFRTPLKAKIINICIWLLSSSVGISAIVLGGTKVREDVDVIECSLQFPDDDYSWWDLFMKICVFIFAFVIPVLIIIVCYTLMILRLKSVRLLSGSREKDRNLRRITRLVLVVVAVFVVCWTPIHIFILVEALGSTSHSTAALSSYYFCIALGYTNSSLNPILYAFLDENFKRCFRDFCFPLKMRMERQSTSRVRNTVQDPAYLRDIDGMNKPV
UniProt P35372, whole entry: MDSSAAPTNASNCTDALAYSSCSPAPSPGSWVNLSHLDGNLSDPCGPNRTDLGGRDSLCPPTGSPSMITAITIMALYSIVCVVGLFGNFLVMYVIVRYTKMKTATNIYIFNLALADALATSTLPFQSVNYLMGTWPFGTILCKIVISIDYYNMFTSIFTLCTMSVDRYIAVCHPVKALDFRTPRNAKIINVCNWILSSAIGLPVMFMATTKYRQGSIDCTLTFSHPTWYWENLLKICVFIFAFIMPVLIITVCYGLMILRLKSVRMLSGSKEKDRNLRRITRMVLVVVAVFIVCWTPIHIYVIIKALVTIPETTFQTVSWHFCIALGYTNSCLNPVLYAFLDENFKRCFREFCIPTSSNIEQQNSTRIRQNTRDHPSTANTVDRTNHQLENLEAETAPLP

Experiments:
[1] = molecular target: T1, Kappa-type opioid receptor (Homo sapiens, UniProt P41145); experiment: Inhibition of human kappa opioid receptor expressed in HEK293T cells assessed as inhibition of cAMP production after 30 mins; format: functional, cell-based, HEK-293T
Outline: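 HEK293T cells were transiently co-transfected with the GloSensor-22F cAMP biosensor and hKOR, then seeded after 18 h at 37 °C in HBSS, 10% FBS, 20 mM HEPES, pH 7.4. After 1–2 h recovery, cells received drug for 30 min. cAMP was then stimulated with isoproterenol, added as a 1,200 nM 4× solution in GloSensor reagent, and luminescence was read.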

Homo sapiens [2] = species: Homo sapiens; experiment: Selectivity ratio of Ki for delta opioid receptor (unknown origin) to ratio of Ki for kappa opioid receptor (unknown origin)
Mu-type opioid receptor = Mu-type opioid receptor (Homo sapiens, UniProt P35372); experiment: Displacement of [3H]DAMGO from mu opioid receptor (unknown origin) expressed in HEK293T cells after 1.5 hrs by radioligand binding assay; format: cell-based, HEK-293T
[3] = molecular target: T1, Kappa-type opioid receptor; experiment: Displacement of [3H]U69593 from kappa opioid receptor (unknown origin) expressed in HEK293T cells after 1.5 hrs by radioligand binding assay; format: cell-based, HEK-293T
Outline: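 HEK293T cells stably expressing KOR were hypotonically lysed in 50 mM Tris-HCl, 10 mM MgCl2, 0.1 mM EDTA, pH 7.4, and membranes were pelleted. Membranes (1 μg protein/μL suspension) were incubated with 0.5 nM [3H]U-69593 and competitor at 10 pM–10 μM final for 1.5 h in the dark at room temperature. Samples were filtered onto PEI-soaked GF/A filters and scintillation counted. Ki came from a one-site competition fit.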

Homo sapiens [4] = species: Homo sapiens; experiment: Selectivity ratio of Ki for mu opioid receptor (unknown origin) to ratio of Ki for kappa opioid receptor (unknown origin)

Structure (SMILES): C=CCC(=O)O[C@H]1C[C@@H](C(=O)OC)[C@]2(C)CC[C@H]3C(=O)O[C@H](c4ccoc4)C[C@]3(C)[C@H]2C1=O
- EC50 [1]: 23 nM
- Ratio Ki (Homo sapiens [2]): 326
- Ki (Mu-type opioid receptor): 1440 nM
- Ki [3]: 10 nM
- Ratio Ki (Homo sapiens [4]): 144
